{"source": "patent US4690926A", "about": "“Boxazomycin A and B, new antibiotics containing benzoxazole nucleus” (Bristol-Myers Company, priority 1986, dated 1987)", "system": "anaerobes", "conditions": "in vitro"}
{"smiles": "NC[C@H]1O[C@H](O[C@H]2[C@H](O)[C@@H](O[C@H]3O[C@H](CO)[C@@H](O)[C@H](N)[C@H]3O)[C@H](N)C[C@@H]2N)[C@H](O)[C@@H](O)[C@@H]1O", "note": "[Kanamycin, kanamycin, reference compound]", "values": [{"measurement": "activity against anaerobes", "result": "inactive against anaerobes"}]}
